The entries are a selection whose mix differs from that of the whole data set. Calls of active or inactive are those of the source.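 How the source made its calls: active means mean activation above the mean of DMSO-only wells plus 3 SD (cut at about 0.5% in these data); inactive means the rest.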
These compounds were tested against Mu-type opioid receptor (Homo sapiens) (UniProt P35372) (assay: OPRM1 agonists via beta-arrestin recruitment, confirmation, counter-screen for mouse HTR2A agonist project, cell-based, luminescence, single concentration (AID 624380)). Settings: U2OS OPRM1 beta-arrestin PathHunter, at 9.3 µM, hits give high values, DMSO 0%, DAMGO 9.3 µM 100%.

By UniProt entry, the sequences of proteins in these tests, tags left out.
UniProt P35372, whole entry: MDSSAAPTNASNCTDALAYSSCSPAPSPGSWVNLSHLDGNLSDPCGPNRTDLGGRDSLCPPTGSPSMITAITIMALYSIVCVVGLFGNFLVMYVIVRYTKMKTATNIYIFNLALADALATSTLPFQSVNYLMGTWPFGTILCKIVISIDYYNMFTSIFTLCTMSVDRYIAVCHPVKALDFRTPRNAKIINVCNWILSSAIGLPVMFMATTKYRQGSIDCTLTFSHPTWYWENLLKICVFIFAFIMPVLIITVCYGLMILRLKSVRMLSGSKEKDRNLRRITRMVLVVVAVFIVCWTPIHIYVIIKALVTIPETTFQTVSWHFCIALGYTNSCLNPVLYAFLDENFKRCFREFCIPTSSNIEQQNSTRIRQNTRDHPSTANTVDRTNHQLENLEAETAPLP

SMILES	activation
COc1ccc(-n2nnnc2C(c2cc3ccccc3o2)N2CCC(n3c(=O)[nH]c4ccccc43)CC2)cc1 (centres undefined)	inactive: -0.08%
COc1ccc(-n2nnnc2C(c2ccccc2OC(F)(F)F)N2CCC(n3c(=O)[nH]c4ccccc43)CC2)cc1 (centres undefined)	active: 0.77%
COc1ccc(C(c2nnnn2-c2ccc3c(c2)OCCO3)N2CCC(n3c(=O)[nH]c4ccccc43)CC2)cc1 (centres undefined)	inactive: -0.2%
O=c1[nH]c2ccccc2n1C1CCN(C(c2cccs2)c2nnnn2-c2ccc3c(c2)OCCO3)CC1 (centres undefined)	inactive: -0.45%
